Values quoted from earlier work, collected in patent publication US6967218B2, “Pravastatin pharmaceutical formulations and methods of their use” (Biovail Laboratories, Inc., priority 2002, dated 2005).

Biological target: T1, HMG-CoA reductase (Homo sapiens, UniProt P04035)
T1 sequence (P04035 1-888): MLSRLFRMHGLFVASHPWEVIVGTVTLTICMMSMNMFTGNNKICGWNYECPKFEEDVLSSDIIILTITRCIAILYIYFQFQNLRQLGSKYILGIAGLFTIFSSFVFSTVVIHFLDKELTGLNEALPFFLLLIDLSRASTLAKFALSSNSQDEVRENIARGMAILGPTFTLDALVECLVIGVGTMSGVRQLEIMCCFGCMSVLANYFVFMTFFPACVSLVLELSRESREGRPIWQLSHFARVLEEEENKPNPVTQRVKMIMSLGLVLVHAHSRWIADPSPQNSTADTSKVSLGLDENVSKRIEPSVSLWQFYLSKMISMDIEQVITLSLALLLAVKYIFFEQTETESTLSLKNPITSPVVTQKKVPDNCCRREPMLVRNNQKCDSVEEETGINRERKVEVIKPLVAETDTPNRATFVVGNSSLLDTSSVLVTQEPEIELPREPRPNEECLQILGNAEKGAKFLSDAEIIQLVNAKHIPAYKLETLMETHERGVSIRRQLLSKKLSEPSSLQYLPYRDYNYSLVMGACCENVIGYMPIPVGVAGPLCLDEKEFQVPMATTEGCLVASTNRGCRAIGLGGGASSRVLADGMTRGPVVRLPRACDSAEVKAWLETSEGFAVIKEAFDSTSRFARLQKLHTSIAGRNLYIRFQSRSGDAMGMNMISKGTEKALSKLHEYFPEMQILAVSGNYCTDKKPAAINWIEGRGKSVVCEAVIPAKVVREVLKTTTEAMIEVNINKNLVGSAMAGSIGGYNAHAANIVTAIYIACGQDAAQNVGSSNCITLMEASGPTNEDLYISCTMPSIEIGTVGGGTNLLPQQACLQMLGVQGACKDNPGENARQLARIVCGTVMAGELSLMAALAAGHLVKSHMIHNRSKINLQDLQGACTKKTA
Details: fraction of pravastatin activity

CCC(C)C(=O)O[C@H]1CC=CC2=C[C@H](O)[C@H](C)[C@H](CC[C@@H](O)C[C@@H](O)CC(=O)O)[C@H]21 (single isomer, unassigned) [3α-hydroxy isomeric metabolite, 3α-hydroxyisomer of pravastatin]
HMG-CoA reductase inhibitory activity relative to the parent compound: one-tenth to one-fortieth
